Legend:
[1] = test system: Fe-starved rats; test: Effect of Fe-supplying agents on the absorption of Fe in Fe-starved rats
Protocol: 3-week old Sprague-Dawley male rats (Daehan Biolink Co., Ltd., Korea) were employed for the present experiment after application of an elementary diet for one week. These rats were divided into a normal group and an experimental group. The diet for the normal group (“normal diet”) was prepared based upon AIN-76 diet composition, whereas the diet for the experimental group (“Fe-free diet” or “experimental diet”) was prepared by replacing a mineral mixture in the normal diet composition with a Fe-deficient mineral mixture. […] These Fe-supplying agents were orally administered to rats along with the experimental diet for one week before the rats were sacrificed.
The concentration of Fe-supplying agent for the oral administration was 10 times the recommended amount for adult males. 3× distilled water was used for preparation of the experimental diet and was fed to rats for maintenance. The compositions of diets administered to the normal group and experimental group, respectively, are described in TABLE 14 below.
Rats were adapted to a cage for one week before the start of the experiment, and their feces were collected for a final 3 days. On the final day, the abdomen was cut open under ether anesthesia, then blood was harvested from abdominal aorta, and major organs such as liver, kidney, spleen, etc. were extracted. […] Each organ was trimmed and washed with normal saline, then moisture on the surface thereof was removed to measure the weight and length.
CBC (Complete Blood Count: Red blood cell; RBC, white blood cell; WBC, Hematocrits; HCT, Hemoglobin; Hb) was measured from the anticoagulated blood, and IRON and TIBC Total Iron Binding Capacity) were measured from the blood serum. CBC was measured by an automatic analyzer (ADVIA 120, Bayer, U.S.A). As reagents, Isoton III (Beckman Coulter, U.S.A), Coulter clenz (Beckman Coulter), Lyse S III (Beckman Coulter), 4% sodium hypochloride-solution (Beckman Coulter) and 4C-plus (Beckman Coulter), Scatter Pak (Beckman Coulter) were used.
All data obtained in the present experiment were expressed with the mean standard error using the SAS program. T-test in each group was carried out at a range of P<0.05 by Duncan's multiple comparison test.

[2] = orange juice composition of TABLE 5, 2% chelate, stored for a long time
[3] = test system: calcium-starved rats; test: Test of the degree of absorption of Ca-supplying agents in calcium-starved rats
Protocol: 3-week old Sprague-Dawley male rats (Daehan Biolink Co., Ltd., Korea) were employed for the present experiment after adjustment to an elementary diet These rats were divided into a normal group and an experimental group. The diet for the normal group (“normal diet”) was prepared based upon AIN-76 diet composition, whereas the diet for the experimental group (“Ca-flee diet” or “experimental diet”) was prepared by replacing a mineral mixture in the normal diet composition with a Ca deficient mineral mixture. […] These Ca-supplying agents were orally administered to each group along with the Ca-free diet for one week before the rats were sacrificed.
The concentration of Ca-supplying agent in the oral administration was ⅓ of the concentration of calcium in AIN-76 mineral mixture, which corresponds to 10 times the recommended amount for adult males. 3× distilled water was used for preparation of the experimental diet and was also was fed to rats for maintenance. The compositions of diets administered to the normal group and experimental groups, respectively, are described in TABLE 8 as below.
The abdomens of the rats were cut open under ether anesthesia, then blood was harvested from abdominal aorta, and major organs such as liver, kidney, spleen, etc. were […], followed by the extraction of fibula. The blood was centrifuged at 3000 rpm for 10 minutes to separate serum. Each organ and bone was trimmed and washed with normal saline and moisture on the surface thereof was removed to measure the weight and length thereof.
The content of calcium in serum and urine was measured by Calcium Reagent Arsenazo III kit (Sigma Corp., U.S.A). In order to measure the content of calcium in feces, the feces (sample) was put in a Pyrex beaker and the weight thereof was measured to 0.1 mg unit, then 5 ml of HNO3 and 2 ml of H2O2 were added and the beaker was left uncovered on a hot plate. The acid-digested sample was cooled and 2 ml of H2O2 was added thereto, followed by heating. Next, the acid was sufficiently volatilized to make the concentration of HNO3 to 1-5%, followed by the analysis with ICP-AES (inductively Coupled Plasma Atomic Emission Spectrometer). The condition for analysis is given below. • Model: Jobin Yvon 138 Ultrace • Source: Argon plasma (6000 K) • Spectral range: 160-800 nm • Resolution: 0.005 nm (UV) • Detection limit: 1×ppb˜100×ppb • Wavelength for analysis: 393.366 nm 3. Effect On Weight of Major Organs

[4] = Fe-supplying agent orally for one week with Fe-free diet
[5] = Ca-supplying agent orally for one week with Ca-free diet

**Q.** Which “Fecal Fe excretion” value ([1]; Fe intake 1500 μg/3days) does the source give for iron-aspartic acid chelate [Fe-Asp] here?
**A.** The value was 1000.6 μg/3days.

**Q.** And the Relative iron absorption ([1]; Fe intake 1500 μg/3days)?
**A.** Its Relative iron absorption is 50.2%.

**Q.** And the Kidney weight [1, 4]?
**A.** Its Kidney weight is 7.50 ± 0.22 mg/BW.

**Q.** And the Spleen weight [1, 4]?
**A.** Its Spleen weight is 3.00 ± 0.15 mg/BW.

**Q.** And the Liver weight ([1]; Fe-supplying agent orally for one week with Fe-free diet (1% heme 50, 10% Fe-Asp 5 mg/ml/day))?
**A.** The Liver weight was 40.60 ± 1.00 mg/BW.

**Q.** And the IRON in serum ([1]; oral for one week)?
**A.** Its IRON in serum is 175.2 ± 24.61 µg/dL.

**Q.** Which formation of precipitates [2] does the source give for “Seaweed Calcium-Aspartic Acid Chelate [EXAMPLE 9]” here?
**A.** Its formation of precipitates is “no precipitates were formed”.

**Q.** For calcium-aspartic acid chelate [Asp-Ca], which “Ca excretion in feces” value ([3]; Ca intake 96 mg/3days) is on record?
**A.** The value was 35.39 mg/3days.

**Q.** And the “Relative absorption of calcium” value ([3]; Ca intake 96 mg/3days)?
**A.** Its value is 65.9%.

**Q.** What about the Kidney weight [3, 5] of the same substance?
**A.** Its Kidney weight is 8.40 ± 0.26 mg/BW.

**Q.** What about the Spleen weight [3, 5] of the same substance?
**A.** Its Spleen weight is 3.00 ± 0.00 mg/BW.

**Q.** What about the “Concentration of calcium in urine” value ([3]; oral for one week) of the same substance?
**A.** The value was 0.22 ± 0.04 mg/dL.

**Q.** What about the “Concentration of serum-calcium in blood collected from eyeball” value ([3]; oral for one week, blood from eyeball) of the same substance?
**A.** Its value is 11.24 ± 0.85 mg/dL.
